Measurements reported in patent US9301963B2, “Treatment tool and method of gradual withdrawal from bezodiazepine dependency” (priority 2011, dated 2016).

Test system: benzodiazepine-dependent patient
Assay: Step taper method (comparison, FIG. 3)
Conditions: starting dose 14.0 mg, line 320

CN1C(=O)CN=C(c2ccccc2)c2cc(Cl)ccc21 [Diazepam]
withdrawal symptoms after sharp dosage drops (steps): always accompanied by hard-to-endure benzodiazepine withdrawal symptoms
